Where two headings read alike, the source gives them in different places.
System: β-adrenergic receptors coupled with adenylyl cyclase in PAZ-6 cells
Details: 15 min

Multiplication factor/basal level (cAMP) (PAZ-6 differentiated): 15
Multiplication factor/basal level (cAMP) (PAZ-6 not differentiated): 21
increase in the cAMP level/basal level (differentiated PAZ-6, isoproterenol 10 μM): 15 fold
increase in the cAMP levels (undifferentiated PAZ-6, isoproterenol 10 μM): 21 fold
Compound: CC(C)NCC(O)c1ccc(O)c(O)c1 (stereo not shown) [isoproterenol, isoprenaline]
